# Measured values reported in article PMC9476706, “Integrating pharmacokinetics and network analysis to investigate the mechanism of Moutan Cortex in blood-heat and blood stasis syndrome” (Chinese Medicine, 2022).
# Assay: Pharmacokinetic study of nine absorbed components in rat serum after oral RMC extract (UHPLC-DAD);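 also: BHS model made by subcutaneous yeast suspension then two adrenaline injections with ice-water immersion, normal rats given saline instead, serum analytes quantified by UHPLC-DAD at 254 nm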
# Details: for AUC / Cmax / MRT / T1/2 / Tmax: serum, oral RMC extract 10 mL/kg (equal to 6 g/mL of RMC) once a day for 7 days, n = 6
substance,measurement,setting,value
oxypaeoniflorin,AUC,BHS-RMC group (BHS model rats),24.16 ± 3.09↓ μg/mL*h
same,Cmax,BHS-RMC group (BHS model rats),2.09 ± 0.04↓ μg/mL
same,MRT,BHS-RMC group (BHS model rats),21.59 ± 3.42↑ h
same,T1/2,BHS-RMC group (BHS model rats),15.13 ± 2.25↑ h
same,Tmax,BHS-RMC group (BHS model rats),0.50 ± 0.00↓ h
same,time after which the compound was not detected,"BHS-RMC rats, oral RMC extract",6 h
same,AUC,N-RMC group (normal rats),45.72 ± 1.4 µg·h/mL
same,Cmax,N-RMC group (normal rats),10.23 ± 0.11 µg/mL
same,MRT,N-RMC group (normal rats),5.53 ± 0.50 h
same,T1/2,N-RMC group (normal rats),3.08 ± 0.98 h
same,Tmax,N-RMC group (normal rats),4.00 ± 0.00 h
